{"source": "patent US20080161399A1", "about": "“AGENT FOR REDUCTION OF OXIDIZED ALBUMIN LEVEL” (Ajinomoto Co., Inc., priority 2005, published 2008)", "assay": "Anti-oxidation performance of albumin (Fenton reaction hydroxyl radical, ESR)", "type": "physicochemical", "conditions": "albumin 10 mg/ml, radical intensity by ESR, compared to reduced albumin", "method": "For the purpose of examining whether an in vivo redox state-improving effect, which is one of the functions of albumin, is influenced by an increase in the oxidized albumin ratio, the anti-oxidation performance of albumin was measured. Samples showing 3 kinds of HSA(ox) % below were prepared from albumin (HSA) purified from normal human plasma and used for the evaluation.\n1. reduced albumin: purified HSA. HSA(ox) %=21.5 2. oxidized albumin: prepared by artificially forming a disulfide bond with cysteine in the 34-position cysteine residue of HSA(red). HSA(ox) %=92.0 3. post-preservation albumin: prepared by incubating plasma at 37° C. for 18 hr to increase oxidized albumin ratio, followed by purification. HSA(ox) %=45.6\nThe anti-oxidation performance of albumin was determined by generating hydroxyl radical in vitro by a Fenton reaction and quantifying the intensity of generated radical with an ESR (Electron Spin Resonance) measurement device in the co-presence of various albumins.\n25 μM FeSO4, 5 mM DMPO (Spin Trapping Agent) and 100 μM DETAPAC (ferrous ion chelating agent) were mixed in a test tube, and various albumins were added thereto at a concentration of 10 mg/ml. Ten seconds later, 0.5 mM H2O2 was added and they were mixed well. The intensity of hydroxyl radical generated in 1 min from 45 sec later was measured by ESR (JES-FR80S, JEOL Ltd.). […]"}
{"substance": "oxidized albumin: prepared by artificially forming a disulfide bond with cysteine in the 34-position cysteine residue of HSA(red). HSA(ox) %=92.0", "values": [{"measurement": "ability to eliminate hydroxyl radical", "value": "weak ability to eliminate hydroxyl radical as compared to reduced albumin"}]}
